Calls of active or inactive are those of the source. The calls are words filed in the database; no cut-off is given here.
Columns and labels:
[1] = molecular target: T1, Cholinesterases; ACHE & BCHE (Homo sapiens) (UniProt P06276+P22303); assay: Selectivity index, ratio of IC50 for human BChE to IC50 for human AChE
[2] = tested on: Rattus norvegicus; assay: Anti-experimental autoimmune myasthenia gravis activity in Wistar rat assessed as increase in amplitude decrement of action potential at 0.1 mg/kg, ip measured at 15 to 240 mins by electromyogram analysis; details: time 15-240 min
[3] = tested on: Rattus norvegicus; assay: Anti-experimental autoimmune myasthenia gravis activity in Wistar rat assessed as increase in amplitude decrement of action potential at 0.1 mg/kg, ip measured for 1 hrs by electromyogram analysis
[4] = molecular target: T1, Cholinesterases; ACHE & BCHE (Homo sapiens); assay: Selectivity index, ratio of IC50 for inhibition of human plasma BChE to IC50 for inhibition of AChE in human Erythrocyte
[5] = molecular target: Acetylcholinesterase (Homo sapiens) (UniProt P22303); assay: Binding affinity to human AChE using ATC as substrate assessed as residence time measured for 10 mins by Ellman's method
[6] = tested on: Rattus norvegicus; assay: Anti-experimental autoimmune myasthenia gravis activity in Wistar rat assessed as increase in amplitude decrement of action potential at 0.01 mg/kg, ip measured for 3 hrs by electromyogram analysis
[7] = molecular target: Acetylcholinesterase (Homo sapiens) (UniProt P22303); assay: Binding affinity to human AChE using ATC as substrate assessed as half life measured for 10 mins by Ellman's method
[8] = molecular target: Acetylcholinesterase (Homo sapiens) (UniProt P22303); assay: Binding affinity to human AChE using ATC as substrate assessed as binding constant (Kon) measured for 10 mins by Ellman's method
[9] = tested on: Rattus norvegicus; assay: Anti-experimental autoimmune myasthenia gravis activity in Wistar rat assessed as effect on force of urinary bladder contraction at 0.005 to 0.01 mg/kg, ip measured for 15 mins by electromyogram analysis; details: dose 0.005-0.01 mg/kg
[10] = tested on: Rattus norvegicus; assay: Anti-experimental autoimmune myasthenia gravis activity in Wistar rat assessed as increase in amplitude decrement of action potential at 0.01 mg/kg, ip measured at 15 to 240 mins by electromyogram analysis; details: time 15-240 min
[11] = molecular target: Acetylcholinesterase (Homo sapiens) (UniProt P22303); assay: Binding affinity to human AChE using ATC as substrate assessed as binding constant (Koff) measured for 10 mins by Ellman's method
[12] = tested on: Rattus norvegicus; assay: Anti-experimental autoimmune myasthenia gravis activity in Wistar rat assessed as increase in amplitude decrement of action potential at 0.015 mg/kg, ip measured at 15 to 240 mins by electromyogram analysis; details: time 15-240 min

The chains behind the UniProt entries cited, without tags or fusion partners. Where a name states a change or a piece, a line headed by the entry shows the natural chain unless it says otherwise.
UniProt P06276, whole entry, looked up: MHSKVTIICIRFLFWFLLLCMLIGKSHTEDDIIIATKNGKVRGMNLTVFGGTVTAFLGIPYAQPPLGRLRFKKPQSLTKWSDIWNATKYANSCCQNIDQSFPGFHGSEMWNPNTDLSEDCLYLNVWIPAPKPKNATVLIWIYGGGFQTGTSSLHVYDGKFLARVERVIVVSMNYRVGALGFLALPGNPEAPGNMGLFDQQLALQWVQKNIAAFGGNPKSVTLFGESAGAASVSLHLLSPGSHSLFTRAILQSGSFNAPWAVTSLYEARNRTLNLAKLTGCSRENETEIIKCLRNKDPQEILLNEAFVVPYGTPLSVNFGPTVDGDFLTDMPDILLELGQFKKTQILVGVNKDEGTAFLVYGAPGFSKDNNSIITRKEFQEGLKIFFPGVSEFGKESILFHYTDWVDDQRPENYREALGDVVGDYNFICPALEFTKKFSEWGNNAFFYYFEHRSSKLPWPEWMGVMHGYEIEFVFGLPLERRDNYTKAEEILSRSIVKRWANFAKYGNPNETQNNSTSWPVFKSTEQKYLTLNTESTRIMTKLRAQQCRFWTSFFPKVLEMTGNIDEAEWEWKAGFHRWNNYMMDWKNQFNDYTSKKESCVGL
UniProt P22303: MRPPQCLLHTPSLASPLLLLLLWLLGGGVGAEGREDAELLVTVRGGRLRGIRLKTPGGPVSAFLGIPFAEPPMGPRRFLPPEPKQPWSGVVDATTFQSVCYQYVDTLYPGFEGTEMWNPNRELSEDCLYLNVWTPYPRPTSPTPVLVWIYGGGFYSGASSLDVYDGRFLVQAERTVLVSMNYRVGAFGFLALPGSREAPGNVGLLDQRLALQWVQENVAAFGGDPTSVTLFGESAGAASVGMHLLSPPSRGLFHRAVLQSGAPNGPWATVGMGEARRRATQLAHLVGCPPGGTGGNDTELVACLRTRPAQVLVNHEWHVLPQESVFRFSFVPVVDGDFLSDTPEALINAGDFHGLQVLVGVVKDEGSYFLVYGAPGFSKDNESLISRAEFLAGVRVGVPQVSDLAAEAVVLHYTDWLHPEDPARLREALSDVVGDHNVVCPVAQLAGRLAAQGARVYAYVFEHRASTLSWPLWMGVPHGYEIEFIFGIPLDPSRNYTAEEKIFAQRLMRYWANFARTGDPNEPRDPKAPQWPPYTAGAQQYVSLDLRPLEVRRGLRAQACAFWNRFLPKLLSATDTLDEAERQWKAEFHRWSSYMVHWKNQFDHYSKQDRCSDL

CN(C)C(=O)Oc1ccc[n+](C)c1
Ratio IC50 [1]: 2.9 | Activity [2]: Active | Activity [3]: Active

CC[N+](CC)(CCCCCn1c(=O)cc(C)n(CCCn2c(C)cc(=O)n(C)c2=O)c1=O)Cc1ccccc1C(F)(F)F
Ratio IC50 [1]: 220000

CC[N+](CC)(CCCCCn1c(=O)cc(C)n(CCCCCn2c(C)cc(=O)n(C)c2=O)c1=O)Cc1ccccc1C(F)(F)F
Ratio IC50 [1]: 120000

CC[N+](CC)(CCCCCn1c(=O)cc(C)n(CCCCn2c(C)cc(=O)n(C)c2=O)c1=O)Cc1ccccc1C(F)(F)F
Ratio IC50 [1]: 200000

CC[N+](CC)(CCCCCn1c(C)cc(=O)n(CCCCC[N+](CC)(CC)Cc2ccccc2)c1=O)Cc1ccccc1
Ratio IC50 [4]: 66700

CC[N+](CC)(CCCCCn1c(=O)cc(C)n(CCCCCCn2c(C)cc(=O)n(C)c2=O)c1=O)Cc1ccccc1C(F)(F)F
TIME [5]: 0.31 h | Activity [6]: Active | Ratio IC50 [1]: 200000 | T1/2 [7]: 12.9 min | K [8]: 4.8 10^9/M/min | Activity [9]: inactive | Activity [10]: Active | K [11]: 0.07 min⁻¹ | Activity [12]: Active

CC[N+](CC)(CCCCCn1c(=O)cc(C)n(CCCCCCn2c(C)cc(=O)n(C)c2=O)c1=O)Cc1ccccc1[N+](=O)[O-]
Ratio IC50 [1]: 60000

CC[N+](CC)(CCCCCn1c(=O)cc(C)n(CCCCn2c(C)cc(=O)n(C)c2=O)c1=O)Cc1ccccc1[N+](=O)[O-]
Ratio IC50 [1]: 45700

CC[N+](CC)(CCCCCn1c(=O)cc(C)n(CCCn2c(C)cc(=O)n(C)c2=O)c1=O)Cc1ccccc1[N+](=O)[O-]
Ratio IC50 [1]: 571

CC[N+](CC)(CCCCCn1c(=O)cc(C)n(CCCCCn2c(C)cc(=O)n(C)c2=O)c1=O)Cc1ccccc1[N+](=O)[O-]
Ratio IC50 [1]: 113000

Reference: ChEMBL document CHEMBL5352458, “Novel slow-binding reversible acetylcholinesterase inhibitors based on uracil moieties for possible treatment of myasthenia gravis and protection from organophosphate poisoning” (2023)
